This is an account of results in patent US8772265B2, “Water soluble curcumin compositions for use in anti-cancer and anti-inflammatory therapy” (Universite Libre de Bruxelles, priority 2008, dated 2014).

Read-outs that look alike come from different tables or passages of the source.

Data set [1] in a line: Solubilities in water (20° C.). It is filed as physicochemical. An excerpt:
The compound according to the invention allows therefore to increase the solubility of curcumin derivatives in aqueous solutions which in turn enables IV administrations and/or increases their bioavailability. The table below presents the solubilities of the various intermediates.

Data set [2] in a line: Influence of different cyclodextrins on curcumin solubility. It is filed as physicochemical. Conditions: FIGS. 11a and 11b. An excerpt: In order to test the solubility of curcumin, it was derivatised with one of the following cyclodextrins: • beta-cyclodextrin (Cavamax W7 Pharma lot 70P277), • alpha-cyclodextrin (Cavamax W6 Pharma Wacker 60P304), • RAMEB Randomly Methylated cyclodextrins (Wacker, lot 71P015), • HP-gamma-CD (Wacker, lot 83P002), • Crismeb (roquette lot 765342) • HP-beta-CD (wacker lot 74T003), • beta-cyclodextrin (Cavamax W7 Pharma lot 70P277) plus alpha-cyclodextrin (Cavamax W6 Pharma Wacker 60P304)

Data set [3] can be described thus: Stability of curcumin lysinate in blood, rat. It counts as in vitro ADME. As for the experimental part: (§1) Weigh+/−precisely 5.14 mg of curcumin lysinate in a 100 ml flask
(§2) Bring up to the gauge line with methanol for HPLC.
(§3) Venous blood from all the species studied was collected in citrated tubes and homogenised.
(§4) Collect 950 μL of blood. Add 50 μl of the parent solution of curcumin lysinate i.e. a final concentration of 5.10-5 M of curcumin lysinate.
(§5) Homogenise. Incubation time: one hour at 5° C., 20° C. and 37° C.
(§6) Following incubation each sample is centrifuged in order to obtain the PPP (Platelet Poor Plasma)
(§7) Conditions of preparation: 2000 G, Duration: 10 minutes, Temperature: 5° C. Centrifuge Eppendorf 5804R
(§8) 100 μl pp of each sample is collected, to which is added 300 μl of methanol (precipitation of proteins).
(§9) Centrifuging: 10000 G Duration: 10 minutes Temperature 5° C.
(§10) The floating substance is dosed by HPLC.

Data set [4] is described as follows: Stability of curcumin lysinate in blood, man. Conditions: human blood. It is filed as in vitro ADME. As for the experimental part:
as §1, §2, §3, §4, §5, §6, §7, §8, §9, §10

Data set [5] can be described thus: Stability of curcumin lysinate in blood, rabbit. It is filed as in vitro ADME. As for the experimental part: as §1, §2, §3, §4, §5, §6, §7, §8, §9, §10
Data set [6] is described as follows: Stability of curcumin lysinate in blood, pig. It is filed as in vitro ADME. The method, then:
as §1, §2, §3, §4, §5, §6, §7, §8, §9, §10

The nature of data set [7]: Stability of curcumin lysinate in blood, dog. It counts as in vitro ADME. Conditions: initial 5.10-5 M. As for the experimental part:
as §1, §2, §3, §4, §5, §6, §7, §8, §9, §10

Data set [8] can be described thus: Stability of curcumin lysinate in blood, sheep. It is filed as in vitro ADME. The method, then:
as §1, §2, §3, §4, §5, §6, §7, §8, §9, §10

Data set [9] can be described thus: Solubility and stability of curcumin lysinate in aqueous HP-beta-CD solution with lysine base (HPLC dosage). It counts as physicochemical. As to conditions: 1,028 g curcumin lysinate, 6.56 g HP-beta-CD, 292.4 mg L-Lysine base in 100 ml distilled water.
A short description of data set [10]: Stability of curcumin lysinate in blood, cow. It is filed as in vitro ADME. As for the experimental part:
as §1, §2, §3, §4, §5, §6, §7, §8, §9, §10

A short description of data set [11]: Stability of curcumin lysinate in blood, horse. It is filed as in vitro ADME. The method, then: as §1, §2, §3, §4, §5, §6, §7, §8, §9, §10
The mark [12] stands for this setting: one hour at 5° C., initial 5.10-5 M.

One may read the solubility as how much of the substance goes into solution per volume. A high value points to a readily soluble substance. For the substance “hydroxypropyl-gamma-cyclodextrin [HP-gamma-CD]”, the solubility result in [1] is on record as “+/−500 mg/ml”. The “effect of the cyclodextrin on curcumin solubility” value in data set [2] was “clearly increase the solubility of curcumin”.

Turning to Curcumin Lysinate, the “% of the initial concentration” value in data set [3] (one hour at 5° C.) was 96%; in data set [3] (one hour at 20° C.) it was 47%; in [3] (one hour at 37° C.), 39%; in [4] (one hour at 5° C.), 93%; in [4] (one hour at 20° C.), 40%; in data set [4] (one hour at 37° C.), 26%. The “% of the initial concentration” value in data set [5] (one hour at 5° C.) turned out to be 94%; in data set [5] (one hour at 20° C.), 42%; in data set [5] (one hour at 37° C.), 31%; in data set [11] (one hour at 5° C.), 98%; in data set [11] (one hour at 20° C.), 49%; in [11] (one hour at 37° C.), 40%. Moreover, the “% of initial concentration” value in data set [6] (one hour at 5° C.), in data set [8] (one hour at 5° C.) and in data set [10] (one hour at 5° C.) was 20% throughout. In addition, the “concentration of curcumin lysinate after incubation in blood” value in [6] (setting [12]) is recorded as 1.10-5 M; in data set [6] (one hour at 20° C.), “below detectable limit”; in [6] (one hour at 37° C.) it was “below detectable limit”; in data set [7] (one hour at 5° C.), “below detectable limit”; in data set [7] (one hour at 20° C.), “below detectable limit”; in data set [7] (one hour at 37° C.) it was “below detectable limit”. For the same substance, the “concentration of curcumin lysinate after incubation in blood” value in data set [8] (setting [12]) is 1.10-5 M; in data set [8] (one hour at 20° C.) it was “below detectable limit”; in data set [8] (one hour at 37° C.), “below detectable limit”; in [10] (setting [12]), 1.10-5 M; in [10] (one hour at 20° C.), “below detectable limit”; in [10] (one hour at 37° C.), “below detectable limit”. Moreover, in [1] (Water (20° C.)), the solubility result was “+/−0.05 mg/ml”. In addition, in data set [9], the “concentration of curcumin lysinate in solution, optimised conditions” value is recorded as 2.10^−2 M.

“hydroxypropyl-gamma-cyclodextrin complex of curcumin lysinate [NDS28]” registered a solubility in data set [1] of more than 21 mg/mL.
